Literature values in paper PMC3913854 (Investigational New Drugs, 2013).

Key:
[1] = system: refractory HER2+ disease; conditions: heavily pretreated patients, N = 110; cited from earlier work
[2] = system: HER2+ patients; conditions: N = 991, interim analysis, cited from earlier work

trastuzumab emtansine: investigational HER2-targeted agent
clinical benefit rate [1]: 48% | overall response rate [1]: 35% | progression-free survival ([2]; P < .0001): 9.6 months | serious AEs versus lapatinib and capecitabine [2]: fewer serious AEs
